Experimental findings from publication PMC11585924, “Direct measurements of neurosteroid binding to specific sites on GABAA receptors” (British journal of pharmacology, 2024) are described below.

Chains of the proteins cited; added tags and fusions are not shown. A line that says so, or that is headed by a name, gives the form on record, which may keep a tag or linker.
UniProt P14867, other isoform, or with tags, fused parts or gaps Q269L: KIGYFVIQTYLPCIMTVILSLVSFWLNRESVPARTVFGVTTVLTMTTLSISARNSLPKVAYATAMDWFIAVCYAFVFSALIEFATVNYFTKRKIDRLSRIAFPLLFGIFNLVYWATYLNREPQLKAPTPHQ
UniProt P14867, other isoform, or with tags, fused parts or gaps W273L: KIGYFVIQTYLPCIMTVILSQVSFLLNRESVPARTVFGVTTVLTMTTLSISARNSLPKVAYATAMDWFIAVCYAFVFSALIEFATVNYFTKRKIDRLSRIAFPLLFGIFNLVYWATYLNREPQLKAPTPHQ
UniProt P14867, other isoform, or with tags, fused parts or gaps: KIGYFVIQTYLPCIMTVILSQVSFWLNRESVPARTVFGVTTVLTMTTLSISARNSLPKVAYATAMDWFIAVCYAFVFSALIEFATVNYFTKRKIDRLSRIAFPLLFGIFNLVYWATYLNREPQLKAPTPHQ

What all share (type): binding
The target in one experiment is ELIC-α1^Q242LGABAAR (Homo sapiens, UniProt P14867, Q269L). The note with it: Q242L; in the presence of 30 μM Epi-AlloP. Here is the method:
(§1) ELIC-α1GABAAR was expressed and purified according to a previously published protocol ([Q. Chen et al., 2018]). The purified protein was aliquoted and stored at −80°C. Mutagenesis was performed as described in previous reports ([Kinde et al., 2016]) by oligonucleotide-directed mutagenesis using Phu polymerase (Thermo Fisher Scientific, Waltham, MA, USA) verified by sequencing. ELIC-α1GABAAR was expressed in OverExpress™ C43(D3) E. coli, derived from Rosetta™(DE3) cells under double selection with kanamycin and chloramphenicol for ELIC-α1GABAAR.
(§2) One hundred microlitres of purified ELIC-α1GABAAR (0.3 μM in Buffer A + 0.015% DDM) was transferred into a 50-μl window quartz cuvette (Starna Cells, Atascadero, CA, USA), which was placed in a cuvette holder maintained at 4°C. The cuvette containing the protein sample remained in the cuvette holder for the duration of the experiment. Protein stability was ensured by comparing the intensities of emission spectra of ELIC-α1GABAAR at 330 nm before and after 30 min incubation, and the protein sample was discarded if the intensity decreased by more than 1%. Two microlitres of NaI (AK Scientific, Union City, CA, USA; 5-M stock prepared in 0.1-Mm sodium hydrosulfite [Sigma-Aldrich, St. Louis, MO, USA]) was added to the protein (final concentration = 100 mM) and incubated for 10 min to reduce the fluorescence emission from hydrophilic tryptophans. To measure the concentration–dependent effects of NS on tryptophan fluorescence, 1 μl of NS from each 100× stock solution was sequentially added to the NaI-equilibrated protein and thoroughly mixed to achieve concentrations from 0.01 to 50 μM. The protein-NS solution was incubated for 30 min after each addition. Following each incubation period, the emission spectrum of the protein-NS solution was acquired.

A further experiment deals with ELIC-α1^W246LGABAAR (Homo sapiens, UniProt P14867, W273L). The protocol: as §1, §2
The target in a further experiment is ELIC-α1GABAAR (Homo sapiens, UniProt P14867). The protocol:
One hundred microlitres of ELIC-α1GABAAR (0.3 μM) was transferred into a 50-μl window quartz cuvette maintained at 4°C, and NaI was added to the protein sample to a final concentration of 100 mM and incubated for 10 min. MQ290 was then added at a concentration of 3 μM for 3α-OH NS inhibition curves or 1 μM for 3β-OH NS inhibition curves and incubated for 30 min. One-microlitre aliquots of 3α-OH and 3β-OH NS from their corresponding stock solutions (prepared in Buffer A + 0.015% DDM) were added to achieve concentrations between 0.01 and 30 μM. The background emission spectra of ligands alone were obtained for each ligand concentration in the absence of protein and were subtracted from the protein-ligand emission spectra to yield background subtracted data. The MQ290 FRET spectra for different ligand concentrations were estimated using the method described above. The 370-nm intensities of the FRET spectra were plotted against ligand concentration and fitted to a four-parameter logistic curve to obtain IC50 data (GraphPad Software version 9.4.0, San Diego, CA). Ki values were calculated using the relationship: Ki=IC50/1+LT/Kd
where LT is the concentration of MQ290 and Kd was determined from the MQ290 binding curve.

For the molecule `CC(=O)[C@H]1CC[C@H]2[C@@H]3CC[C@H]4C[C@H](O)CC[C@]4(C)[C@H]3CC[C@]12C` [AlloP, allopregnanolone], the extent of quench at ELIC-α1^Q242LGABAAR is recorded as −17%. For the same molecule, the “residual saturable quenching in W246L receptors” value at ELIC-α1^W246LGABAAR (W246L) came out at 29 ± 1%. Also, on ELIC-α1^W246LGABAAR (W246L vs WT), the “reduction of AlloP quenching in W246L receptors” value stood at 66 ± 6%. For the same molecule, at ELIC-α1GABAAR, the “fold Ki (FRET assay) lower than Kd (quench assay)” value is given as “about 5 fold”.
